Results on three molecules are retold here after patent US5798372A, “Method for preventing onset of restenosis after angioplasty employing a retinoid” (Allergan, priority 1997, dated 1998).

SMILES strings stand for the structures.

The subject of the assay is RAR and RXR receptor. Description: RAR vs RXR agonist activity (retinoid selectivity). It counts as biochemical. The conditions noted are these: RAR selective agonist preferably has RAR vs RXR activity ratio of at least 5; for SELECTIVITY: Table 2; for RETINOID SELECTIVITY: Table 3.

For the molecule `CC1=C(/C=C/C(C)=C/C=C/C(C)=C/C(=O)O)C(C)(C)CCC1` [AGN 100335, (E)-3,7-dimethyl-9-(2,6,6-trimethyl-1-cyclohexen-1-yl)-2,4,6,8-nonatetraenoic acid], the SELECTIVITY entry is reported as “RAR” and the “RETINOID SELECTIVITY” value is listed as “RAR”.

With `CC1=C(/C=C/C(C)=C/C=C/C(C)=C\C(=O)O)C(C)(C)CCC1` [AGN 190013, (2Z,4E,6E,8E)-3,7-dimethyl-9-(2,6,6-trimethyl-1-cyclohexen-1-yl)-2,4,6,8-nonatetraenoic acid], the SELECTIVITY entry is given as “RAR” and the “RETINOID SELECTIVITY” value is “RAR”.

Turning to `CC1=C(/C=C/C(C)=C\C=C\C(C)=C\C(=O)O)C(C)(C)CCC1` [AGN 192013, (2E,4E,6Z,8E)-3,7-dimethyl-9-(2,6,6-trimethyl-1-cyclohexen-1-yl)-2,4,6,8-nonatetraenoic acid], the SELECTIVITY result is given as “PAN AGONIST” and the “RETINOID SELECTIVITY” value is recorded as “PANAGONIST”.
